Legend:
Cannabinoid receptor 1 [1] = biological target: T1, Cannabinoid receptor 1 (Homo sapiens, UniProt P21554); test: Displacement of [3H]-SR141716A from human CB1 receptor expressed in CHO-K1 cells after 1 hr by liquid scintillation counting; format: cell-based
Summary of the method: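 Radioligand displacement with [3H]SR141716 used to determine equilibrium dissociation constant Ki.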

The chains behind the UniProt entries cited, without tags or fusion partners.
UniProt P21554, whole entry: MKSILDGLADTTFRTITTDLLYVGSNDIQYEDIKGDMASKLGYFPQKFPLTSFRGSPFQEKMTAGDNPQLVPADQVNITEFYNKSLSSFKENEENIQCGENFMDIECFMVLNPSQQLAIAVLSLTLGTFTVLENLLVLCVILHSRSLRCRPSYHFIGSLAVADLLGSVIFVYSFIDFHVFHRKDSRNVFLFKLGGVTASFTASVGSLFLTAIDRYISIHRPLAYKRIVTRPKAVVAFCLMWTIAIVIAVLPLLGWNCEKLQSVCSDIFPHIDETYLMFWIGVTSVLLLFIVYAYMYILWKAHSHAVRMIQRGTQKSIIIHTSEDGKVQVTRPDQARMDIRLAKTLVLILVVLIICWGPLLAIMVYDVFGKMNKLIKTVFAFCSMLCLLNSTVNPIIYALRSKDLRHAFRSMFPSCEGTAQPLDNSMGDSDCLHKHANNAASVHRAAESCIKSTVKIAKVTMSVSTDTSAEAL

Cannabinoid receptor 1 [2] = biological target: T1, Cannabinoid receptor 1; test: Displacement of [3H]-CP55940 from human CB1 receptor expressed in CHO-K1 cells after 1 hr by liquid scintillation spectrometry; format: cell-based
Summary of the method: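 Membranes from CHO-K1 cells over-expressing CB1 or CB2 used for [3H]CP55940 displacement, giving Ki at each receptor. Selectivity taken as the comparison of the CB2 and CB1 Ki values.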

Cannabinoid receptor 1 [3] = biological target: T1, Cannabinoid receptor 1; test: Antagonist activity at human CB1 receptor transfected in CHO-K1 cells co-expressing G-alpha-q16 protein assessed as inhibition of G-alpha-q16 protein-mediated intracellular calcium mobilization; format: functional, cell-based
Summary of the method: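 Fluorescent intracellular calcium read-out in CHO-K1 cells expressing CB1 coupled via Gαq16. Cells pre-incubated with test agent, then a CP55940 concentration-response was run. Antagonism seen as a rightward shift of the agonist curve. Apparent dissociation constant Ke was derived from agonist EC50 with versus without antagonist.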

Ke (Cannabinoid receptor 1 [3]) | SMILES | Ki (Cannabinoid receptor 1 [1]) | Ki (Cannabinoid receptor 1 [2])
0.207 µM | Cc1c(C(=O)NCCCCCCCNS(C)(=O)=O)nn(-c2ccc(Cl)cc2Cl)c1-c1ccc(Cl)cc1 | 60 nM | 158 nM
 | Cc1c(C(=O)NC[C@H]2CC[C@@H](CNS(N)(=O)=O)CC2)nn(-c2ccc(Cl)cc2Cl)c1-c1ccc(Cl)cc1 | 15 nM | 107 nM
 | Cc1c(C(=O)NCC2CCC(CNS(N)(=O)=O)CC2)nn(-c2ccc(Cl)cc2Cl)c1-c1ccc(Cl)cc1 (mixture of isomers) | 21 nM | 135 nM
